Test results taken from US10203331B2, “Single cell drug response measurements via live cell interferometry” (The Regents of the University of California, priority 2011, dated 2019).

Legend:
[1] = tested on: SK-BR-3 breast cancer cell line; conditions: 5-7 day proliferation assays; O'Brien et al.; cited from earlier work
[2] = tested on: MDA-MB-231 breast cancer cell line; conditions: O'Brien et al.; cited from earlier work
[3] = tested on: BT-474 breast cancer cell line; conditions: 5-7 day proliferation assays; O'Brien et al.; cited from earlier work
[4] = tested on: MCF-7 breast cancer cell line; conditions: O'Brien et al.; cited from earlier work
[5] = tested on: MCF-7 breast cancer cell line; assay: aLCI mass response profiling; type: cell-based, human; conditions: 20 ug/ml trastuzumab, over 7 h
Protocol: (§1) Mass response profiling of four human breast cancer cell lines was performed in real-time using aLCI with co-incubation of 20 ug/ml clinical grade trastuzumab. For each cell type, a control well containing only culture media and a treated well containing trastuzumab were measured simultaneously. […] Importantly, these cell lines grow with very different morphologies. MDA-MB-231 and SK-BR-3 lines grow as single cells or in loose disaggregated clusters, whereas MCF-7 and BT-474 lines grow as dense multi-cellular colonies (FIG. 13). The relative scale between a single MCF-7 cell (mass˜5×10^2 pg) and a large colony (˜22×10^3 pg) covers a 44-fold difference in mass (FIG. 14).
(§2) BT-474, SK-BR-3, MDA-MB-231, and MCF-7 breast cancer cell lines were obtained from American Type Culture Collection (Rockville, Md.). All lines were maintained in RPMI 1640 (Cellgro; Manassas, Va.) growth media supplemented with 10% fetal bovine serum (Omega; Tarzana, Calif.) and 1% penicillin, streptomycin, and L-glutamine.
(§3) Clinical grade trastuzumab (Herceptin) (Genentech; South San Francisco, Calif.) was used at 20 ug/ml.
(§4) 5×10^4 cells were seeded into 12-well plates and allowed to adhere and grow for 2 days before beginning treatment. On days 0, 3, 5, and 7 of treatment with 20 ug/ml Herceptin, cells were trypsinized and counted. To calculate the fold change, the doubling time was determined (DT=t*(log(2)/log(Nt/N0))) for control and drug treated samples and the fold change taken as DTdrug/DTctrl. DT=doubling time, t=time, Nt=number or mass of cells at time t, N0=number or mass of cells at time t=0.
(§5) The live cell interferometer has been described previously (see, e.g. J. Reed, et al. Biophys J. 2011, 101, 1025-31; J. Reed, et al. ACS Nano. 2008, 2, 841-6; J. Reed, et al. Nanotechnology. 2008, 19). The system consists of a modified Bruker NT9300 optical profiler (Bruker; Tucson, Ariz.) with a 20×0.28NA Michelson interference objective. The Michelson interferometer contains a beam splitter, reference mirror, and compensating fluid cell to account for the optical path differences induced by the fluid surrounding the sample. The phase shifting (PSI) method was used to capture phase images of the cell samples. To enable multi-sample imaging, aLCI employs a small motor to adjust the interferometer reference mirror for small differences in cover glass optical path length at each sample well.
(§6) Image analysis was performed using a custom, multi-step program written in Matlab (Mathworks Inc., Natick, Mass.). The first step was a phase-unwrapping step to remove phase-errors (integer wavelength errors due to the ambiguity inherent in quantitative phase imaging) which remained after processing by the Goldstein phase unwrapping algorithm employed by Bruker Vision software (Bruker Nano Inc., Tucson, Ariz.). This algorithm uses multiple random walks away from each pixel to remove integer wavelength jumps and non-physical excursions below background level. The second step is to segment each image into cell or colony objects using a combination of a local adaptive median filter and a watershed transform. Finally, objects identified by image segmentation were tracked using the particle tracking code adapted for Matlab by Daniel Blair and Eric Dufresne, based on an IDL particle tracking code (see, e.g. J C. Crocker, et al. Journal of Colloid and Interface Science. 1996, 179, 298-310).

[6] = tested on: BT-474 breast cancer cell line; assay: aLCI mass response profiling; type: cell-based, human; conditions: 20 ug/ml trastuzumab
Protocol: as §1, §2, §3, §4, §5, §6

[7] = tested on: SK-BR-3 breast cancer cell line; assay: aLCI mass response profiling; type: cell-based, human; conditions: 20 ug/ml trastuzumab
Protocol: as §1, §2, §3, §4, §5, §6

[8] = tested on: MDA-MB-231 breast cancer cell line; assay: aLCI mass response profiling; type: cell-based, human; conditions: 20 ug/ml trastuzumab, over 7 h
Protocol: as §1, §2, §3, §4, §5, §6

trastuzumab
trastuzumab sensitivity in vitro [1]: differentially sensitive
trastuzumab sensitivity in vitro [2]: resistant
trastuzumab sensitivity in vitro [3]: differentially sensitive
trastuzumab sensitivity in vitro [4]: resistant
difference in growth rates treated vs control [5]: no significant difference
increase in mass over time, treated versus control samples [5]: identical increase in mass over time
time at which growth rates of treated and control samples begin to diverge [6]: ~4 h
control-to-treated mass fold change (mean+/-standard error) ([6]; after 6 h): 1.70+/−0.39
time at which growth rates of treated and control samples begin to diverge [7]: ~4 h
control-to-treated mass fold change (mean+/-standard error) ([7]; after 6 h): 1.24+/−0.10
difference in growth rates treated vs control [8]: no significant difference
increase in mass over time, treated versus control samples [8]: identical increase in mass over time
